Reference: article PMC9939733, “Natural and synthetic 2-oxoglutarate derivatives are substrates for oncogenic variants of human isocitrate dehydrogenase 1 and 2” (The Journal of Biological Chemistry, 2023)

Protein sequences, listed by entry. Tags and fused reporters are not part of them.
UniProt O75874, whole entry R132C/S280F: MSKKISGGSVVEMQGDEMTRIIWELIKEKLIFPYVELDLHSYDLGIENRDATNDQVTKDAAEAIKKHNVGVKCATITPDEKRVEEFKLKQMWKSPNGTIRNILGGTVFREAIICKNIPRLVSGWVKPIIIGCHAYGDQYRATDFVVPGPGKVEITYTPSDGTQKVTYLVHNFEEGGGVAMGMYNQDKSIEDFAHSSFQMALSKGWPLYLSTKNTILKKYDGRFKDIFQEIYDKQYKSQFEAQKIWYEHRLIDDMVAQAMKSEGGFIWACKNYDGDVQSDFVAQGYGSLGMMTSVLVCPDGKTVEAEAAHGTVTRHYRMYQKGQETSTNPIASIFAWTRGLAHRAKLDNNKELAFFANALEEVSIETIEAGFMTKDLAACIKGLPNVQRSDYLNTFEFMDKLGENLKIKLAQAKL

Molecular target: T1, R132C/S280F IDH1 (Homo sapiens, UniProt O75874, R132C/S280F)
T1 construct: made in house
Test: Steady-state kinetics, NADPH turnover assay
Type: biochemical
Protocol: independent runs, each composed of technical duplicates (n = 2; mean ± SD); c) R132C/S280F IDH1 assays
monitoring NADPH turnover were performed as reported (3). […]

For O=C(O)CCC(=O)C(=O)O [2OG, 2-oxoglutarate], the kcatapp was 2.3 ± 0.1 s⁻¹.
